Reference: ChEMBL document CHEMBL4219244, “Blocking Alcoholic Steatosis in Mice with a Peripherally Restricted Purine Antagonist of the Type 1 Cannabinoid Receptor” (J Med Chem, 2018)

Assays:
[1] = Ratio of drug level in brain to plasma in C57BL/6 mouse at 10 mg/kg, po administered as single dose measured at 0.5 to 24 hrs post dose by LC-MS analysis; format: ADME, organism-based
[2] = Half life in human pooled hepatic microsomes at 1 uM up to 120 mins in presence of NADPH; format: ADME, Liver, microsome; conditions: 2 h

## Clc1ccc(-n2c(-c3ccccc3Cl)nc3c(N4CCN(Cc5ccccc5Cl)CC4)ncnc32)cc1
[1]
  BPR: 0.03
[2]
  t1/2: 90 min
